Consider 1 substance from patent US20020091262A1, “Substituted aryl or heteroarylamides having retinoid-like biological activity” (Allergan, priority 1995, published 2002).

By UniProt entry, the sequences of proteins in these tests, tags left out.
UniProt P10826, whole entry, species assumed: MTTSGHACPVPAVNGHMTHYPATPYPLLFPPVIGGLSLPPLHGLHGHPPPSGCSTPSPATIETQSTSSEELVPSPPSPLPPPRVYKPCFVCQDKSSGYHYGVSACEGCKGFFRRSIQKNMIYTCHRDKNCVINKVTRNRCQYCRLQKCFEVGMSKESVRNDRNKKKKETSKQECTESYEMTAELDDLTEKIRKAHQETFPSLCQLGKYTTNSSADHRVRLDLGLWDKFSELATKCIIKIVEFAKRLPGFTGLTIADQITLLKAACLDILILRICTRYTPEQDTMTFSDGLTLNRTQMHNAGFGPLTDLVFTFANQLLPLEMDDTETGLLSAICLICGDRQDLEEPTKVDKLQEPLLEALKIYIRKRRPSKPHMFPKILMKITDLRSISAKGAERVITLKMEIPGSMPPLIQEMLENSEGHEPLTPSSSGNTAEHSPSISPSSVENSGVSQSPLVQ
UniProt P13631, whole entry, species assumed: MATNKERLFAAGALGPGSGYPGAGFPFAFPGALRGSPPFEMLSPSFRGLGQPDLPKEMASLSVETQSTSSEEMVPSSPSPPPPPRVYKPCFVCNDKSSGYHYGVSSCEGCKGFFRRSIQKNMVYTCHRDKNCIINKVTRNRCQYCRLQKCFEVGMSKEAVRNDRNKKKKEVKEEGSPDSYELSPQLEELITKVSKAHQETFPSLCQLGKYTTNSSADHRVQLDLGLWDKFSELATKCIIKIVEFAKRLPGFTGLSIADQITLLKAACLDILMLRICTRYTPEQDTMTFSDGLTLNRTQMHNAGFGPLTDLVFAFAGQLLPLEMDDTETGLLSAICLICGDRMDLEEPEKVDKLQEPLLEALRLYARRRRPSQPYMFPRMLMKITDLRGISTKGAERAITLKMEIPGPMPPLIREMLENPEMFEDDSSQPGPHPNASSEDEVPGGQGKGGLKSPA
UniProt P10276, whole entry, species assumed: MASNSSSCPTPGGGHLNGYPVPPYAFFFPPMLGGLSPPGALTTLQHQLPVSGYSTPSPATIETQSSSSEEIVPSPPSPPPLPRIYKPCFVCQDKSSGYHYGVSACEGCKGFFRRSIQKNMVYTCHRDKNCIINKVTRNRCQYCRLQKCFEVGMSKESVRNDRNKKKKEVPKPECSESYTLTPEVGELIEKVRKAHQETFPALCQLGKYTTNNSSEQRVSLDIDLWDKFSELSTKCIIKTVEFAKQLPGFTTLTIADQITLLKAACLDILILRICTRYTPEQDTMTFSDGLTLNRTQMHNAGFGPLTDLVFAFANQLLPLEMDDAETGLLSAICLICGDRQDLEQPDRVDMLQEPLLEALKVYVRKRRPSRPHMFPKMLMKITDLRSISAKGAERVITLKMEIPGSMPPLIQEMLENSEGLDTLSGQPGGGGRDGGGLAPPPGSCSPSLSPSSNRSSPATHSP

One test addresses T1, RARβ (Homo sapiens, UniProt P10826).
T1 construct: made in house; used as extract protein
Put plainly: Ligand binding assay, RARβ. To be noted: receptor expressed in Baculovirus; Cheng-Prussof from IC50. The protocol: (§1) A holoreceptor transactivation assay and a ligand binding assay which measure the ability of the compounds of the invention to bind to the several retinoid receptor subtypes, respectively, are described in published PCT Application No. WO W093/11755 (particularly on pages 30-33 and 37-41) published on Jun. 24, 1993, the specification of which is also incorporated herein by reference. A description of the ligand binding assay is also provided below.
(§2) All binding assays were performed in a similar fashion. All six receptor types were derived from the expressed receptor type (RAR α, β, Γ and RXR α, β, Γ) expressed in Baculovirus. Stock solutions of all compounds were prepared as 10 mM ethanol solutions and serial dilutions carried out into 1:1 DMSO; ethanol. […]
(§3) All receptor biding assays were performed in the same manner. […] The amount of receptor-ligand complex was determined by liquid scintillation counting of hydroxyapitite pellet.
(§4) After correcting for non-specific binding, IC50 values were determined. […] The IC50 value was determined graphically from a loglogit plot of the data. The […] were determined by application of the Cheng-Prussof equation to the IC50 values, the labeled ligand concentration and the Kd of the labeled ligand. […]

A further test concerns the target T2, RARΓ (Homo sapiens, UniProt P13631).
T2 construct: made in house; used as extract protein
Put plainly: Ligand binding assay, RARΓ. To be noted: receptor expressed in Baculovirus; Cheng-Prussof from IC50. The protocol: as §1, §2, §3, §4

In another test the target is T3, RARα (Homo sapiens, UniProt P10276).
T3 construct: made in house; used as extract protein
Put plainly: Ligand binding assay, RARα. The following applies: receptor expressed in Baculovirus; [3H] all-trans retinoic acid; Cheng-Prussof from IC50. The protocol: as §1, §2, §3, §4

For the substance “2-Fluoro-4-[(3′,5′-di-t-butyl)phenylcarbamoyl]benzoic Acid [Compound 6]”, the results for the Kd at RARβ, on RARΓ and at RARα were over 1000 nM, over 1000 nM and 26 nM, respectively.
